Assay results as given in ChEMBL document CHEMBL5137017, “Identification of NVP-CLR457 as an Orally Bioavailable Non-CNS-Penetrant pan-Class IA Phosphoinositol-3-Kinase Inhibitor” (J Med Chem, 2022).

Test system: U-87 MG
Details: Homo sapiens, time 16.0 hrs

- IC90: 507 nM
SMILES: C[C@H]1OC(=O)N(c2nc(-c3cnc(N)nc3C(F)(F)F)cc(N3CCOCC3)n2)[C@H]1CO
